{"source": "patent US20070117773A1", "about": "“Telomerase-inhibiting ENA oligonucleotide” (SANKYO COMPANY, LIMITED, priority 2004, published 2007)", "settings": "20 mM sodium acetate aqueous solution (pH 5.0), 37° C., after about 100 hours, ion exchange HPLC"}
{"substance": "HO-T^e2s-A^e2s-G^e2s-G^e2s-G^e2s-T^e2s-T^e2s-A^e2s-G^e2s-C^e2s-A^e2s-A^e2s-CH2CH2OH [Example 1]", "values": [{"measurement": "hydrolysis", "value": "no hydrolysis"}]}
